## Properties, as collected for the OPERA models

Values as listed in the OPERA 2.9 repository of K. Mansouri.

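The numbers are reported measurements, compiled and curated for the OPERA QSAR suite. One number stands for a compound and property, with no spread given. Method, purity and exact conditions of the single measurements are not given. The measured form (salt, isomer or mixture) is not always the one drawn. Unmarked limits or estimates from the upstream databases cannot be ruled out.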

Melting points are in °C. Boiling points are in °C, nominally at 760 mmHg. logP is the log10 of the octanol-water partition coefficient; higher is more lipophilic. Solubility in water is on a log10 molar scale (set defined at 25 °C). Vapor pressure is log10 of mmHg; the set covers 15 to 30 °C, mostly 20 to 25 °C. fu is the fraction unbound in human plasma, from 0 to 1. Intrinsic clearance (human, µL/min per 10^6 hepatocytes): higher is faster turnover, and 0 stands for none detected. "–" marks a cell with nothing listed here.

| MP (°C) | bp (°C) | logP (octanol/water) | water solubility (log10 mol/L) | vapor pressure (log10 mmHg) | fu | intrinsic clearance (µL/min/10^6 cells) | structure (SMILES) | name |
|---|---|---|---|---|---|---|---|---|
| – | – | – | -3.36 | -8.152 | – | – | NC(=O)Cc1cccc2ccccc12 | 1-Naphthaleneacetamide |
| -34.4 | – | – | – | -1.884 | – | – | CCC[Si](OC(C)=O)(OC(C)=O)OC(C)=O | Propylsilanetriyl triacetate |
| – | – | – | -3.02 | -10.08 | – | – | COC(=O)c1ccc(CNS(C)(=O)=O)cc1S(=O)(=O)NC(=O)Nc1nc(OC)cc(OC)n1 | Mesosulfuron-methyl |
| – | – | -3.12 | -1.812 | – | – | – | NC(=O)CN(CC(=O)O)CC(=O)O | Glycine, N-(2-amino-2-oxoethyl)-N-(carboxymethyl)- |
| – | – | – | -2.495 | -2.222 | – | – | CC(C)CCCCCCO | 7-Methyl-1-octanol |
| – | – | – | -1.42 | – | 0.5 | – | CN(C)[C@@H]1C(O)=C(C(=O)NCN2CCCC2)C(=O)[C@@]2(O)C(O)=C3C(=O)c4c(O)cccc4[C@@](C)(O)C3C[C@@H]12 (some centres undefined) | – |
| – | – | 0.21 | – | -6.921 | – | – | CCC(CO)(CO)C(=O)O | Butanoic acid, 2,2-bis(hydroxymethyl)- |
| 120 | – | 5.2 | -7.347 | -10.04 | – | – | CC(C)(c1ccccc1)c1ccc(OS(=O)(=O)c2cc([N+]#N)c([O-])c3ccccc23)cc1 | – |
| 205 | – | -0.959 | -1.77 | – | – | – | Nc1ccc(S(=O)(=O)O)cc1S(=O)(=O)O | 1,3-Benzenedisulfonic acid, 4-amino- |
| – | – | 4.8 | -4.489 | -3 | – | – | O=C(OCCc1ccccc1)c1ccccc1O | Phenethyl salicylate |
| – | – | 4.59 | -3.693 | -3.481 | – | – | C=CC(=O)OCCOCCOCC(CC)CCCC (stereo unspecified) | Di(ethylene glycol) 2-ethylhexyl ether acrylate |
| – | 331 | 4.92 | – | – | 0.00942 | – | CCCCOC(=O)CC(CC(=O)OCCCC)(OC(C)=O)C(=O)OCCCC | Acetyl tributyl citrate |
| – | – | 2.5 | – | -2.634 | – | – | CNC(=O)C(C)(C(C)C)C(C)C | Trimethyl isopropyl butanamide |
| 144.2 | 374.7 | – | -4.571 | – | – | – | CC(=O)Nc1ccc(F)cc1-c1ccc(Cl)c(Cl)c1 | N-(3',4'-Dichloro-5-fluorobiphenyl-2-yl)acetamide |
| 112 | – | 5.3 | -7.1 | -6.393 | – | – | COC(=O)CCN(CCC(=O)OC)c1ccc(N=Nc2c(Cl)cc([N+](=O)[O-])cc2Br)cc1 | – |
| -34 | – | – | – | -0.066 | – | – | CCOP(=O)(CO)OCC | Diethyl (hydroxymethyl)phosphonate |
| 43 | – | – | – | -4.614 | – | – | CCCC[N+](C)(CCCC)CCCC.[Cl-] | N,N-Dibutyl-N-methylbutan-1-aminium chloride |
| – | – | -0.4 | -2.199 | – | – | – | O=[N+]([O-])c1ccc(Nc2ccc(Nc3ccccc3)c(S(=O)(=O)[O-])c2)c([N+](=O)[O-])c1.[Na+] | C.I. Acid Orange 3 |
| 201.9 | – | 3.74 | – | – | – | – | CCCCCCCCCCCCCC(=O)NC(CCC(=O)O)C(=O)[O-].[K+] (stereo unspecified) | Potassium myristoyl glutamate |
| – | – | – | -5.962 | -4.917 | – | – | CCCCCCCC/C=C\CCCCCCCC(=O)O.CCCCCCCC/C=C\CCCCCCCCN | – |
| – | – | – | -2.06 | -8.801 | 0.06 | – | COc1ncnc(NS(=O)(=O)c2ccc(N)cc2)c1OC | Sulfadoxine |
| 180.2 | – | 0.55 | -1.945 | – | – | – | CC(C)(C)OC(=O)N[C@H](C(=O)O)C12CC3CC(CC(O)(C3)C1)C2 | – |
| 57.2 | 330 | – | -3.876 | – | – | – | CCOC(=O)C(C)(C)c1ccc(C(=O)C2CC2)cc1 | Ethyl 2-[4-(cyclopropanecarbonyl)phenyl]-2-methylpropanoate |
| – | – | -1.076 | – | -1.064 | – | – | NCCCN1CCOCC1 | 4-Morpholinepropanamine |
| -56 | – | – | -1.973 | -0.465 | – | – | COC(=O)C=C1CCCC1 | Methyl cyclopentylideneacetate |
| 110 | – | 3.2 | -5.263 | -6.211 | – | – | Cc1cc(C#N)c(Nc2ccccc2[N+](=O)[O-])s1 | 5-Methyl-2-((2-nitrophenyl)amino)-3-thiophenecarbonitrile |
| – | – | – | – | – | 0.0599 | 26.4 | CCCCc1ccc(N)cc1 | 4-butylaniline |
| – | – | – | – | – | 0.0252 | 13.33 | c1ccc2cc3ccccc3cc2c1 | – |
| – | 223 | – | – | -1.259 | – | – | C=CC(C)(CCC=C(C)C)OC(=O)CC (stereo unspecified) | 3,7-Dimethylocta-1,6-dien-3-yl propanoate |
| – | – | – | -2.679 | -2.937 | – | – | CC(=O)CSc1ccc(Cl)cc1 | (4-Chlorophenylthio)acetone |
| – | 322 | – | -3.535 | – | – | – | CCCCOCCOC(=O)CCCCC(=O)OCCOCCCC | Bis(2-butoxyethyl) adipate |
| 22.15 | – | -0.034 | – | -0.417 | – | – | O=C1OCC(F)O1 (stereo unspecified) | 1,3-Dioxolan-2-one, 4-fluoro- |
| – | – | 5.5 | -4.433 | – | – | – | C=C1CC[C@]2(C(C)C)C[C@H]12 | Sabinen |
| 87 | – | 5.1 | – | – | – | – | Clc1ccccc1NNc1ccccc1Cl | 1,2-Bis(2-chlorophenyl)hydrazine |
| – | – | 4.5 | – | -5.131 | – | – | CCCCCCCCn1sc(Cl)c(Cl)c1=O | 4,5-Dichloro-2-octyl-3(2H)-isothiazolone |